The text below walks through data of US9447134B2 (priority 2012, dated 2016).

Sequences of proteins named here, by UniProt entry; tags and fusion partners are left off. A change or cut given only in a name is not applied to a line headed by its entry.
UniProt Q8T6T2: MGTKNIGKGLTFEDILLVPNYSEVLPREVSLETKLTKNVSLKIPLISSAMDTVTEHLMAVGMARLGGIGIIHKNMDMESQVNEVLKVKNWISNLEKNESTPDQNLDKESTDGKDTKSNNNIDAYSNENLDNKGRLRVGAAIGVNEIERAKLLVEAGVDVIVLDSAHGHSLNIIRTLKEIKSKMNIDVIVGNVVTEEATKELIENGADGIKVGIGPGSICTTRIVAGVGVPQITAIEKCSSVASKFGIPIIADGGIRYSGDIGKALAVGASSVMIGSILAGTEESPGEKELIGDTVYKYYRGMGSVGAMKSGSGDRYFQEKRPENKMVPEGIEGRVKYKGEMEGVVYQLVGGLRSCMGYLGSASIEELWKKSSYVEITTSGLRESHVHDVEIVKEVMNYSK

Experiment [1] has as its target T1, C. parvum/C. hominis IMPDH (CpIMPDH), recombinant, purified from E. coli (Cryptosporidium parvum, UniProt Q8T6T2). In words: biochemical.
The target in experiment [2] is T1, C. parvum/C. hominis IMPDH (CpIMPDH), recombinant, purified from E. coli. Particulars: read-out: CpIMPDH IC50 (+) BSA.

Read-outs that look alike come from different tables or passages of the source.

Take `COc1cc(NC(=O)Cc2nn(C)c(=O)c3ccccc23)ccc1Cl` [Compound D69]: the IC50 (as a rule, the concentration that gives 50% inhibition) in experiment [1] came to 31 nM. As for `CC(=NO)c1cccc(C(C)(C)NC(=O)Nc2ccc(Cl)c([N+](=O)[O-])c2)c1` [Compound P-96], the 50% inhibitory concentration (IC50) in experiment [1] came out at 1.3 nM. For the compound `CC(Oc1ccc(Cl)cc1Cl)C(=O)Nc1ccc2oc(-c3ccccn3)nc2c1` (centres unmarked) [Compound Q22], in experiment [1], the IC50 came to 183 nM. For `CC(Oc1cccc([N+](=O)[O-])c1Cl)C(=O)Nc1ccc2oc(-c3ccncc3)nc2c1` (centres unmarked) [Compound Q52], in experiment [1], the IC50 came to 2.6 nM. On to `CC(Oc1cccc(C(F)(F)F)c1Cl)C(=O)Nc1ccc2oc(-c3ccncc3)nc2c1` (centres unmarked) [Compound Q53], for which the IC50 in experiment [1] is 12 nM.

Turning to `CC(C)C(Oc1cccc2ccccc12)C(=O)Nc1ccc2oc(-c3ccncc3)nc2c1` (centres unmarked) [Compound Q54, 3-methyl-2-(naphthalene-1-yloxy)-N-(2-(pyridine-4-yl)benzo[d]oxazol-5-yl) butanamide], the IC50 in experiment [1] amounted to 21 nM. As for `CC(Nc1cccc(Cl)c1Cl)C(=O)Nc1ccc2oc(-c3ccncc3)nc2c1` (centres unmarked) [Compound Q60, 2-(2,3-dichlorophenylamino)-N-(2-(pyridine-4-yl)benzo[d]oxazol-5-yl)propanamide], the IC50 in experiment [2] came to 1.8 ± 0.52 nM; in experiment [1], 1.9 ± 1.13 nM.

On to `CC(NC(=O)c1ccc2oc(-c3ccncc3)nc2c1)c1ccccc1` (centres unmarked) [Compound Q63], for which, in experiment [1] ([…]), the IC50 came to 200000 nM. For the compound `C[C@H](Nc1cccc(Cl)c1Cl)C(=O)Nc1ccc2oc(-c3ccncc3)nc2c1` [Compound Q67, (S)-2-(2,3-dichlorophenylamino)-N-(2-(pyridine-4-yl)benzo[d]oxazol-5-yl)propanamide], the values for the IC50 in experiment [2], in experiment [1] (CpIMPDH IC50 (-) BSA) and in experiment [1] ([…]) were 1.1 ± 0.05 nM, 0.53 ± 0.19 nM and 2.6 nM, respectively.

With `C[C@H](Nc1cccc2ccccc12)C(=O)Nc1ccc2oc(-c3ccncc3)nc2c1` [Compound Q74, (S)-2-(naphthalen-1-ylamino)-N-(2-(pyridin-4-yl)benzo[d]oxazol-5-yl)propanamide], the values for the IC50 in experiment [2] and in experiment [1] were 15 ± 3.6 nM and 14.6 ± 6.3 nM, respectively.
